Measured values taken from patent US20240043860A1, “NOVEL HYDROXYPHENYLPYRUVATE DIOXYGENASE POLYPEPTIDES AND METHODS OF USE THEREOF” (Syngenta Crop Protection AG, priority 2020, published 2024).
Where “and” joins values, the source holds several entries; their conditions need not be identical. Identical values can stand only once.

What was measured:
Test in all cases: spray test, herbicidal damage scoring
Type in all cases: in vivo
[1] = tested on: transgenic tobacco plants expressing mutant HPPD SEQ ID 20; settings: Table 3.3, 14 days after treatment, 100=complete death, 0=no damage, one value per event
Method: (§1) Avena sativa HPPD or orthologues and variants thereof, for example SEQ IDs 1-63 and 122-127, were expressed in transgenic tobacco. DNA sequences that encode these polypeptides (optimized for tobacco or, optionally, codon optimized according to a target crop such as soybean) were prepared synthetically. Each sequence was designed to include a 5′ fusion with TMV omega 5′ leader sequence such that they are flanked at the 5′ end with XhoI and at the 3′ end with KpnI to facilitate direct cloning into a suitable binary vector for Agrobacterium-based plant transformation.
(§2) In one example, the TMV omega 5′ leader and a HPPD encoding gene of interest is excised using XhoI/KpnI and cloned into similarly digested binary vector pBIN 19 (Bevan, Nucl. Acids Res. (1984) behind a double enhanced 35S promoter ahead of a NOS 3′ transcription terminator and then transformed into E. coli DH5 alpha competent cells. DNA recovered from the E. coli is used to transform Agrobacterium tumefaciens LBA4404, and transformed bacteria are selected on media contain rifampicin and kanamycin. Tobacco tissue is subjected to Agrobacterium-mediated transformation using methods well described in the art or as described herein. For example, a master plate of Agrobacterium tumefaciens containing the HPPD expressing the binary vector is used to inoculate 10 ml LB (L broth) containing 100 mg/l Rifampicin plus 50 mg/l Kanamycin using a single bacterial colony. This is incubated overnight at 28° C. shaking at 200 rpm. This entire overnight culture is used to inoculate a 50 ml volume of LB containing the same antibiotics. Again this is cultured overnight at 28° C. shaking at 200 rpm. The Agrobacterium cells are pelleted by centrifuging at 3000 rpm for 15 minutes and then resuspended in MS (Murashige and Skoog) medium containing 30 g/l sucrose, pH 5.9 to an OD […]=0.6. This suspension is dispensed in 25 ml aliquots into petri dishes.
(§3) Once rooted, plantlets are transferred from agar and potted into 50% peat, 50% John Innes Soil No. 3 or, for example, MetroMix® 380 soil (Sun Gro Horticulture, Bellevue, WA) with slow-release fertilizer in 3 inch round or 4 inch square pots and left regularly watered to establish for 8-12d in the glass house. Glass house conditions are about 24-27° C. day; 18-21° C. night and approximately a 14h (or longer in UK summer) photoperiod. Humidity is adjusted to ˜65% and light levels used are up to 2000 umol/m^2 at bench level. […]
(§4) Plants are assessed for damage and scored at, for example, 7 and 14 days after treatment (DAT). […]
(§5) Plants of events showing the least damage are grown to flowering, then bagged and allowed to self. […] Single copy events amongst the Ti plant lines are identified by their 3:1 segregation ratio (with respect to kanamycin and/or herbicide) and by quantitative RT-PCR. […]

[2] = tested on: transgenic tobacco plants expressing mutant HPPD SEQ ID NO: 124; settings: Table 4.2, 7 days after treatment, 100=complete death, 0=no damage, one value per event
[3] = tested on: transgenic tobacco plants expressing mutant HPPD SEQ ID NO: 9; settings: Table 3.4, 14 days after treatment, SEQ ID 9, 100=complete death, 0=no damage, one value per event
Method: as §1, §2, §3, §4, §5

[4] = SEQ ID 125, Herbicide C 200 g/ha

Compound	herbicidal damage scoring, Bicyclopyrone 800 g/ha ([1]; dose 200 g/ha)	herbicidal damage scoring, Bicyclopyrone 800 g/ha ([1]; dose 2000 g/ha)	herbicidal damage scoring, Bicyclopyrone 800 g/ha ([2]; 400 gai/ha)	herbicidal damage scoring, Herbicide C (100 g/ha) ([3]; SEQ ID 125)	herbicidal damage scoring, Herbicide C (100 g/ha) [3, 4]	herbicidal damage scoring, Herbicide C (100 g/ha) ([2]; SEQ ID 9, Herbicide C 100 g/ha)	herbicidal damage scoring, Herbicide C (100 g/ha) ([2]; SEQ ID 9, Herbicide C 200 g/ha)	herbicidal damage scoring, Herbicide C (100 g/ha) ([2]; SEQ ID 125, Herbicide C 100 g/ha)	herbicidal damage scoring, Herbicide C (100 g/ha) [2, 4]
COCCOCc1nc(C(F)(F)F)ccc1C(O)=C1C(=O)C2CCC(C2)C1=O	75 and 80 and 85	65 and 70 and 25	5						
COc1ccc(-n2nc(C)cc(C(=O)C3C(=O)CCCC3=O)c2=O)cc1OC [Herbicide C, dioxopyritrione]				70	80	25	35	65	60
